This passage reports Km results from doi:10.1101/2024.11.06.622220v2 (biorxiv, 2024).

This experiment relates to JaPAL.

As for `N[C@@H](Cc1ccc(O)cc1)C(=O)O` [Tyr], the Michaelis constant (Km) stood at 17.5 µM.

In general, Km refers to the concentration of substrate that gives half-maximal velocity.
